# Results: patent US4451448A, “1-Substituted tricyclic quinazolinones useful as tranquilizers” (Sandoz, Inc., priority 1982, dated 1984)
# Tested on: isolated calf brain benzodiazepine receptors
# Experiment: Flunitrazepam Receptor Binding Assay (FBA TEST No. 1), displacement of 3H-flunitrazepam
# Settings: compound at final concentration of 1×10^-6 M; calf caudate tissue; 1 µM
structure (smiles),measurement,value
"CNC1=Nc2ccc(Cl)cc2C(c2ccccc2)=[N+]([O-])C1 [chlordiazepoxide, reference compound]",percent specifically bound 3H-flunitrazepam compared to control,44 % of control
